# From PubChem BioAssay AID602412 (Johns Hopkins Ion Channel Center, 2012)
# The chains behind the UniProt entries cited, without tags or fusion partners. Where a name states a change or a piece, a line headed by the entry shows the natural chain unless it says otherwise.
# UniProt Q96LB2: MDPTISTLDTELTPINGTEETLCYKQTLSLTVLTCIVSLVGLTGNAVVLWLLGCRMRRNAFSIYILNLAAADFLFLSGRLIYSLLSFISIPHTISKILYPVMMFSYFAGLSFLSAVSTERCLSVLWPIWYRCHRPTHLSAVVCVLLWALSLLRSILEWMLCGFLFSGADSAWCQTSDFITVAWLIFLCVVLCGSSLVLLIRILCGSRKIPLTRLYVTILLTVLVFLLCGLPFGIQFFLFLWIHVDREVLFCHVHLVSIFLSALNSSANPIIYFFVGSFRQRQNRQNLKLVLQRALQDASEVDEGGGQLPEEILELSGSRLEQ
# The entries are a selection whose mix differs from that of the whole data set. The source made the active and inactive calls.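 The calls were made as follows: active = calcium signal rise, corrected for plate position, at least 3 library SD high, with starting brightness within 5 such deviations; inactive = the rest.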
# Biological target: Mas-related G-protein coupled receptor member X1 (Homo sapiens) (UniProt Q96LB2)
# Test: activators of human MrgX1 calcium signaling – HEK293 cells, Fluo-4 calcium flux, confirmation (AID 602412)
# Settings: MrgX1-HEK293, Fluo-4 calcium fluorescence, FDSS; at 10 µM; active compounds read high
compound,measurement,value
CN(C)C1(CNC(=O)c2ccc(Cl)c(S(N)(=O)=O)c2)CCCCC1,activation,active: 126%
